## Apparent affinities of Ab-14 variants for a coronavirus HR2 peptide

Reference: Li et al. 2023, doi:10.1038/s41467-023-39022-2. File: FLAb, binding data.

Antigen: PDVDLGDISGINAS, a 14-residue peptide of the SARS-CoV-2 spike HR2 region.

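Phage display of a naive human antibody library on the peptide gave the parent. This is the validation round: designs drawn from the data on random variants, tested in the same kind of assay. Several design methods are mixed in this list. The assay is AlphaSeq: two haploid yeast populations carry antibody and antigen on their surface. Mating (16 h, 30 °C) was followed by selection of diploids and sequencing of their barcodes. Read counts were normalised to the haploid input and turned into Kd by a linear fit to BCL2-family pairs of known affinity, for each replicate. Mating was done six times.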

Parent: Ab-14, a human scFv built as VH, the linker GGGGSGGGGSGGGGS, VL. Only the CDRs of the heavy chain vary.
VH: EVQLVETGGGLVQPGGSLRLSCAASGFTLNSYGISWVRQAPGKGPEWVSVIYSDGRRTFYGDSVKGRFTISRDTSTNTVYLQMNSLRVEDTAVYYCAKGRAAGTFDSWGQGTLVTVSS
VL: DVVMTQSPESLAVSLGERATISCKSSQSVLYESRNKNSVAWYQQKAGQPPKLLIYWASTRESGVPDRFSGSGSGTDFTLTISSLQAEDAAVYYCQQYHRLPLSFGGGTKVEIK

The parent's heavy chain CDRs are GFTLNSYGIS, VIYSDGRRTFYGDSVK, GRAAGTFDS; each variant's own CDRs replace them letter for letter. Values are log10 of the apparent Kd in nM; lower means stronger binding. The mean shown is taken over the replicates in which the pair was detected. An entry "no signal" has no value in the source: the pair was not observed among the diploids in any replicate. This suggests poor binding but is not conclusive.

{"CDR-H1": "GFTLNSYGIS", "CDR-H2": "VIYSDGRRTFYGDQVK", "CDR-H3": "GQAALTFDA", "mean, log10 nM": "no signal", "seen in": "0/6"}
{"CDR-H1": "GFDLNEYGIS", "CDR-H2": "VIYADGQRTAYADKVK", "CDR-H3": "GENAGTFDI", "mean, log10 nM": "-0.32", "seen in": "6/6"}
{"CDR-H1": "GFDLNEYGIS", "CDR-H2": "VIYADGMRTQYADSVK", "CDR-H3": "GENAGTFDI", "mean, log10 nM": "0.72", "seen in": "4/6"}
{"CDR-H1": "GFSLDEYGIS", "CDR-H2": "VIYADGLRSKYADKVK", "CDR-H3": "GELSQKGDT", "mean, log10 nM": "no signal", "seen in": "0/6"}
{"CDR-H1": "GFVIDEYGIS", "CDR-H2": "VIYADGKRQVYQDKVK", "CDR-H3": "GKGTGNFDT", "mean, log10 nM": "no signal", "seen in": "0/6"}
{"CDR-H1": "GFMLNSYGIS", "CDR-H2": "VIYSDGRRTFYGDSVK", "CDR-H3": "GRAAGTFDS", "mean, log10 nM": "1.55", "seen in": "6/6"}
{"CDR-H1": "GKTLDSYGIS", "CDR-H2": "VIYSDGRRTFYGDSPK", "CDR-H3": "GRAAGTALS", "mean, log10 nM": "no signal", "seen in": "0/6"}
{"CDR-H1": "GFTLNHYGIS", "CDR-H2": "VIYSDGRRTFYGDSVR", "CDR-H3": "GTQMGTFDS", "mean, log10 nM": "no signal", "seen in": "0/6"}
{"CDR-H1": "GFDLNEYGIS", "CDR-H2": "VIYADGRRTAYTDSVK", "CDR-H3": "GANAGTFDS", "mean, log10 nM": "-0.77", "seen in": "6/6"}
{"CDR-H1": "GFDLNEYGIS", "CDR-H2": "VIYADGMRTFYTDSVK", "CDR-H3": "GEVAGTFDE", "mean, log10 nM": "-0.58", "seen in": "6/6"}
{"CDR-H1": "GFNLLEYGIS", "CDR-H2": "VIYADGMRQAYVEDVK", "CDR-H3": "GTNGTSVFF", "mean, log10 nM": "no signal", "seen in": "0/6"}
{"CDR-H1": "GFDLNEYGIS", "CDR-H2": "VIYADGTRTQYIDSVK", "CDR-H3": "GNVAGTFDS", "mean, log10 nM": "-0.08", "seen in": "6/6"}
{"CDR-H1": "GFQLNSYGIS", "CDR-H2": "VIYSDGRRTFYTDSVK", "CDR-H3": "GNAAGTFDS", "mean, log10 nM": "0.66", "seen in": "6/6"}
{"CDR-H1": "GFTLNSYGIS", "CDR-H2": "VIYSDGRRTFYGDSVK", "CDR-H3": "GRQACFFPS", "mean, log10 nM": "no signal", "seen in": "0/6"}
{"CDR-H1": "GFTLNSYGIS", "CDR-H2": "VIYSDGRRTFYADSVK", "CDR-H3": "GRAKIVFDS", "mean, log10 nM": "no signal", "seen in": "0/6"}
{"CDR-H1": "GFTLNSYGIS", "CDR-H2": "VIYSDGRRTFYIDSVK", "CDR-H3": "GTIAGTFDS", "mean, log10 nM": "0.93", "seen in": "5/6"}
{"CDR-H1": "GFSLNMYGIS", "CDR-H2": "VIYSDGRRTQYMDSVK", "CDR-H3": "GRAAGTFDS", "mean, log10 nM": "2.07", "seen in": "5/6"}
{"CDR-H1": "GFDLNEYGIS", "CDR-H2": "VIYADGRRTFYTDSVK", "CDR-H3": "GEMAGTFDS", "mean, log10 nM": "-0.40", "seen in": "6/6"}
{"CDR-H1": "GFDLNEYGIS", "CDR-H2": "VIYADGMRKRYAQNFK", "CDR-H3": "GYNSSDLTV", "mean, log10 nM": "no signal", "seen in": "0/6"}
{"CDR-H1": "GFDLNSYGIS", "CDR-H2": "VIYSDGKRTFYGDSVK", "CDR-H3": "GEAAGTFDS", "mean, log10 nM": "1.29", "seen in": "6/6"}
{"CDR-H1": "GFNLNEYGIS", "CDR-H2": "VIYSDGRRTMYGDSVK", "CDR-H3": "GRTAGTFDS", "mean, log10 nM": "-0.12", "seen in": "6/6"}
{"CDR-H1": "GFDLNEYGIS", "CDR-H2": "VIYADGQRTAYADSVK", "CDR-H3": "GKVAGTFDT", "mean, log10 nM": "-0.43", "seen in": "6/6"}
{"CDR-H1": "GFSLNSYGIS", "CDR-H2": "VIYSDGRRTFYCDSVK", "CDR-H3": "GNAAGTFDS", "mean, log10 nM": "1.50", "seen in": "6/6"}
{"CDR-H1": "GFTLNEYGIS", "CDR-H2": "VIYSDGRRTMYTDSVK", "CDR-H3": "GRTAGTFDS", "mean, log10 nM": "0.49", "seen in": "6/6"}
{"CDR-H1": "GFTLNSYGIS", "CDR-H2": "VIYSDGRRTFYTDSVK", "CDR-H3": "GLLAGTFDS", "mean, log10 nM": "0.82", "seen in": "6/6"}
{"CDR-H1": "GFDLNEYGIS", "CDR-H2": "VIYADGKRTAYADDVK", "CDR-H3": "GGNAGTFDV", "mean, log10 nM": "-0.35", "seen in": "6/6"}
{"CDR-H1": "GFGLNSYGIS", "CDR-H2": "VIYSDGRRTFYGDSVK", "CDR-H3": "GMTAGTFDS", "mean, log10 nM": "0.78", "seen in": "6/6"}
{"CDR-H1": "GFALNEYGIS", "CDR-H2": "VIYADGSRKAYINSVK", "CDR-H3": "GVNNMDVNV", "mean, log10 nM": "1.49", "seen in": "1/6"}

The range of this assay differs from that of the first round, and the authors advise against merging the two. The parent sequence was in this pool as ten entries: three were never detected, three once, and four in most replicates, with averages from 0.34 to 2.37. As a blank, each scFv also met three strains without target: over all heavy chain designs, 1% of these pairings were detected, typically at 2.08 and seldom below 0.84. In the paper, a design with two or fewer of six values counts as a poor binder.